Earlier results, collected in patent US20190091218A1 (priority 2016, published 2019).

Legend:
[1] = in vivo, po
[2] = in vivo

| drug interactions [1] | linearity of pharmacokinetics [1] | Structure (SMILES) | time to reach steady state level [2] |
| --- | --- | --- | --- |
| no drug interactions | nearly linear | CC(C)(O)c1ccccc1CC[C@@H](SCC1(CC(=O)O)CC1)c1cccc(/C=C/c2ccc3ccc(Cl)cc3n2)c1 [montelukast] |  |
|  |  | O=C(O)COCCN1CCN([C@H](c2ccccc2)c2ccc(Cl)cc2)CC1 [levocetirizine] | less than two days; also recorded: within two days |

“Also recorded” adds a separate entry of the source.
